Results published in US5336485A, “Method for protecting animals against tacrine induced cytotoxic injury using sterol compounds” (priority 1993, dated 1994).

Test system: liver
Experiment: CCl4 induced hepatotoxicity in rats (serum AST/ALT)
Assay type: in vivo
Details: rat plasma, 100 mg/kg ip 24 h prior, 48 h after 2.9 g/kg CCl4
Experimental: In vivo experiments were performed to determine if alpha-TS administration protects the liver from chemical toxicity. The liver is the target organ for CCl4. CCl4 is a hepatotoxic agent that induces centrilobular liver necrosis through its metabolism to free radicals. Male Sprague-Dawley rats were given an intraperitoneal dose (100 mg/kg) of a tocopherol analog 24 hours prior to a CCl4 challenge (2.9g/kg given by oral garage). Forty eight hours after the challenge, the rats were sacrificed and the levels of aspartate aminotransferase (AST) and alanine aminotransferase (ALT) were measured.
As discussed above, SGOT levels provide a clinical assessment of hepatotoxicity (liver damage).
Succinate analogs were administered to male Sprague-Dawley rats 20 hours prior to a 1 g CCl4 /kg body weight oral challenge and the AST and ALT serum enzyme levels were measured 48 hours after the challenge.
Similar to the experiments were described above, the ionizable congeners were administered to Sprague-Dawley rats by i.p. injection of a 100 mg ionizable congener/kg body weight dose 20 hours prior to oral administration of a 1 g/kg dose of CCl4, and the AST and ALT levels were measured 48 hours after the CCl4 challenge.

`Cc1c(C)c2c(c(C)c1O)CC[C@@](C)(CCC[C@H](C)CCC[C@H](C)CCCC(C)C)O2` [alpha-T, d-alpha-tocopherol, reference compound] was tested, and the ALT was 4,678 ± 290 Units/L and the AST was 17,330 ± 7220 Units/L.
